Columns and labels:
Experiment in all cases: DSF thermal shift assay
Format in all cases: binding
DMPK1 = target: T1, DMPK1 (Homo sapiens, UniProt Q09013); settings: inhibitor 10 μM, protein 2 μM
T1 construct: purchased in-house DSF (thermal shift) panel per Fedorov et al
Protocol: (§1) Differences in the melting temperature (ΔTm) were measured as described by Fedorov et al.. Purified proteins were buffered in 25 mM HEPES (pH 7.5), 500 mM NaCl and were assayed in a 384-well plate with a final protein concentration of 2 μM in 10 μL assay volume. Inhibitors were added to a final concentration of 10 μM using an ECHO 550 acoustic dispenser (Labcyte, San José, CA, USA). As a fluorescence probe, SYPRO-Orange (Molecular Probes, Eugene, OR, USA) was added in a 1:5000 dilution. Filters for excitation and emission were set to 465 nm and 590 nm, respectively. The temperature was increased from 25 °C with 3 °C/min to a final temperature of 95 °C, while scanning, using the QuantStudio5 (Applied Biosystems, Waltham, MA, USA). Data were analyzed through Boltzmann equation in the Protein Thermal Shift software (Applied Biosystems, Waltham, MA, USA). Samples were measured in technical duplicates.

Chains of the proteins cited; added tags and fusions are not shown. Lines headed by an entry give the natural chain unless they say otherwise; changes in a name come on top. Residues count along the entry.
UniProt Q96SB4, whole entry: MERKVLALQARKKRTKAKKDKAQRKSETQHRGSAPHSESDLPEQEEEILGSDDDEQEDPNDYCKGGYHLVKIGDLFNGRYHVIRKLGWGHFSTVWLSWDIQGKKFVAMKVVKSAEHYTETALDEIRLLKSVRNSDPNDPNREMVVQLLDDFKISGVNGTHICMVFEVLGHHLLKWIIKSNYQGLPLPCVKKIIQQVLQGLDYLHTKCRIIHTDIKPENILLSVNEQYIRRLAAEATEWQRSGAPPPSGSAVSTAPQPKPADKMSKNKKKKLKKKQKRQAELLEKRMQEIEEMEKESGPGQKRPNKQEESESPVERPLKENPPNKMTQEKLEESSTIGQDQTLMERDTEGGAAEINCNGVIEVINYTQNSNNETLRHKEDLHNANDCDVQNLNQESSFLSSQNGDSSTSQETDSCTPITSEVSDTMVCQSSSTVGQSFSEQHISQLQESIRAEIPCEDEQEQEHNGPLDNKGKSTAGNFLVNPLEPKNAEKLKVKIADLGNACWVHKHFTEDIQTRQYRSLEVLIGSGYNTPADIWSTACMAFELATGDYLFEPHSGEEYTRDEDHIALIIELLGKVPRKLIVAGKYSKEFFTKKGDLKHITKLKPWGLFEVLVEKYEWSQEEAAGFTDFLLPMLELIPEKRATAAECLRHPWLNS
UniProt Q9Y243: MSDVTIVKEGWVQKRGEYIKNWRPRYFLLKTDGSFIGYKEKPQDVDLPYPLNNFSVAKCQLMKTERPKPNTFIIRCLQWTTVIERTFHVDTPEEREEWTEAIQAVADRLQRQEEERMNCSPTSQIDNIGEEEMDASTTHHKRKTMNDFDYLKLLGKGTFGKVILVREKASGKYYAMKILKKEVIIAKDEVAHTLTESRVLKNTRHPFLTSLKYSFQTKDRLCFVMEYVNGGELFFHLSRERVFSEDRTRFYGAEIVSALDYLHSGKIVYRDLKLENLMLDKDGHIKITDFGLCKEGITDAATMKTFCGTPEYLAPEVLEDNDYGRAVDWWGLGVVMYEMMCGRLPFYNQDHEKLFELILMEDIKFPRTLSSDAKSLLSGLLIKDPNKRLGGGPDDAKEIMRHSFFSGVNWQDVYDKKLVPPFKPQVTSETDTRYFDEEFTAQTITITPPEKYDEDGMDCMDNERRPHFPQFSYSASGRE
UniProt Q99683: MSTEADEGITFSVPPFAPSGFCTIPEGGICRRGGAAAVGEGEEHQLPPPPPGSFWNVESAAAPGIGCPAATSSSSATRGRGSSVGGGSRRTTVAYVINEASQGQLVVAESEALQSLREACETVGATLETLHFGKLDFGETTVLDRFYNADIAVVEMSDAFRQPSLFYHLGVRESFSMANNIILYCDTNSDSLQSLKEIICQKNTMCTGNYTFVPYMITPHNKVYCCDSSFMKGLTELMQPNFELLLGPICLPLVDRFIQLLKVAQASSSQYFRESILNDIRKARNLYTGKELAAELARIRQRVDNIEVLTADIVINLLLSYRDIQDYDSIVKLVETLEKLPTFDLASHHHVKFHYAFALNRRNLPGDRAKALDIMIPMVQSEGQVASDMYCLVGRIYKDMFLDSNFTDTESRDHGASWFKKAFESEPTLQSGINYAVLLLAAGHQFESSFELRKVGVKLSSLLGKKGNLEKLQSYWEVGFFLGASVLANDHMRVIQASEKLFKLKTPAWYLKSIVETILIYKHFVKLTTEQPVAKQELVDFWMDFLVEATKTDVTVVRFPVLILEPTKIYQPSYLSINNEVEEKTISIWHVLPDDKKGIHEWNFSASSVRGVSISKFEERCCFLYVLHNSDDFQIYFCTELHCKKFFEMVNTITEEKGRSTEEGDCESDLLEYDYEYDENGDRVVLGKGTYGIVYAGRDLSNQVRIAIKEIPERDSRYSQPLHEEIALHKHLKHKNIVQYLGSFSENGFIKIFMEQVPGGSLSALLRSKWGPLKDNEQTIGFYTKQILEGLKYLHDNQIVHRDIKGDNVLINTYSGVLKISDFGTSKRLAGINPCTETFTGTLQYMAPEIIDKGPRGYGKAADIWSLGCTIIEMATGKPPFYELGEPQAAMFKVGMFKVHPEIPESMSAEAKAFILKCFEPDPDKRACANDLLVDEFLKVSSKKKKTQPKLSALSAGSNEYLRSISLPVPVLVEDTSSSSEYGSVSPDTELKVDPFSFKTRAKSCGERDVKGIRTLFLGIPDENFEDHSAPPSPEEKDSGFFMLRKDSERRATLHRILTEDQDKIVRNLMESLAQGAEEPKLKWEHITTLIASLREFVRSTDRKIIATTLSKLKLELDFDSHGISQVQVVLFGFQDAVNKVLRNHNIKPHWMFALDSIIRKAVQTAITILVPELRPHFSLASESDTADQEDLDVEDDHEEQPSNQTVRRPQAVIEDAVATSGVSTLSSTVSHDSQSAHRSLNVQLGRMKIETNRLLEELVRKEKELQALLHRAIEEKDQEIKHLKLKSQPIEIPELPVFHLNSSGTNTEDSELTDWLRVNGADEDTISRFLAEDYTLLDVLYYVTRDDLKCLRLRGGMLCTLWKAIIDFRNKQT
UniProt P15056, whole entry: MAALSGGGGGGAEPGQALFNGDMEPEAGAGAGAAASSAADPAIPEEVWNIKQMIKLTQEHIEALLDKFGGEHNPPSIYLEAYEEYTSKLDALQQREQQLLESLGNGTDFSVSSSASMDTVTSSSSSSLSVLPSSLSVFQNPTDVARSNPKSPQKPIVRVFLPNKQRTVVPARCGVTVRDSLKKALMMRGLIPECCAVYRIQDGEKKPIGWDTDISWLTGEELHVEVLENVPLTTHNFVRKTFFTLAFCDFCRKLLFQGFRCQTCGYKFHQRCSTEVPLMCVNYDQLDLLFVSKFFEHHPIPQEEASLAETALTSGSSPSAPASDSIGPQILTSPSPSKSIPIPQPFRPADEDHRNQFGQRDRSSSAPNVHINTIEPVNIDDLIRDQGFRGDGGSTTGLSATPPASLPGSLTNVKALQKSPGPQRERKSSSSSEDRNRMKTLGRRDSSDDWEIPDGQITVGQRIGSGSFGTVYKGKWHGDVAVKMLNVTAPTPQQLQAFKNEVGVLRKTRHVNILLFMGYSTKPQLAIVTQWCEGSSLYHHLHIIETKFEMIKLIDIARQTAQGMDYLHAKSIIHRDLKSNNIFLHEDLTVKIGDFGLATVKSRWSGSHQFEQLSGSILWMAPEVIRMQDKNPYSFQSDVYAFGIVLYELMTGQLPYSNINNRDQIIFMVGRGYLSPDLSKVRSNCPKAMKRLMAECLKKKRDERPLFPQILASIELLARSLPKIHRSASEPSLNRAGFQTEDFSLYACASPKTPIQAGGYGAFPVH
UniProt Q8TDX7: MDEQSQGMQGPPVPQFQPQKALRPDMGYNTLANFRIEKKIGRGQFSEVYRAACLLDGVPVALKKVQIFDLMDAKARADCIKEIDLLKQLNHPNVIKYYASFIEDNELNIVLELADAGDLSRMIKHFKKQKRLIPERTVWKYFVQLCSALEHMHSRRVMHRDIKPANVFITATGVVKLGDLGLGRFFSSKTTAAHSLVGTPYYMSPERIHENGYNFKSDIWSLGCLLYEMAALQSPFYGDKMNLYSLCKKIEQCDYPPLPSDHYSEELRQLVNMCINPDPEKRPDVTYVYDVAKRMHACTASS
UniProt P29317, 24-976: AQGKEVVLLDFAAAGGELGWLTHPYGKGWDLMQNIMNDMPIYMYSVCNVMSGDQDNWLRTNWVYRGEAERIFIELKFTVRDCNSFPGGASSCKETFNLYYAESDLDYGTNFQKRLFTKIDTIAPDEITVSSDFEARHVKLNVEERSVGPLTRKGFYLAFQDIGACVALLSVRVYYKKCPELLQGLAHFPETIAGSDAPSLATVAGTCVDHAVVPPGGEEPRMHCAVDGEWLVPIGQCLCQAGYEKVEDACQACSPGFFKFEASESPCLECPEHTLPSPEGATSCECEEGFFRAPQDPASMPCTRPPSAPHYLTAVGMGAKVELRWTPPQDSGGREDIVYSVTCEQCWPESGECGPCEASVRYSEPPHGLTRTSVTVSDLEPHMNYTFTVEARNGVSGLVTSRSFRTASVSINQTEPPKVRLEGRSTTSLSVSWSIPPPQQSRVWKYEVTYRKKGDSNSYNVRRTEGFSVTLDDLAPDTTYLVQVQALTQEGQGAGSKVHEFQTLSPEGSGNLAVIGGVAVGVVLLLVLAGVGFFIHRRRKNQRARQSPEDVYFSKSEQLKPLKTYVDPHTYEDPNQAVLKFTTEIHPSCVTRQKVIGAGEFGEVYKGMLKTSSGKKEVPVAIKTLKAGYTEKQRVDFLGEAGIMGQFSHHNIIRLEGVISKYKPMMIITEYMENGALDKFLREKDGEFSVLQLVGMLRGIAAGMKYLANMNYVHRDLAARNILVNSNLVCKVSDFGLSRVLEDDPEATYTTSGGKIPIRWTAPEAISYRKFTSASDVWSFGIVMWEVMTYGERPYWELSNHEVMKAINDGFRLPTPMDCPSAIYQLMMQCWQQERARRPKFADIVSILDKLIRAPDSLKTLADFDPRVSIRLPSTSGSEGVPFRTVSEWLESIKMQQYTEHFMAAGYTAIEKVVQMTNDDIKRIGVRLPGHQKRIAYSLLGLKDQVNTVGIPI
UniProt P34947, whole entry: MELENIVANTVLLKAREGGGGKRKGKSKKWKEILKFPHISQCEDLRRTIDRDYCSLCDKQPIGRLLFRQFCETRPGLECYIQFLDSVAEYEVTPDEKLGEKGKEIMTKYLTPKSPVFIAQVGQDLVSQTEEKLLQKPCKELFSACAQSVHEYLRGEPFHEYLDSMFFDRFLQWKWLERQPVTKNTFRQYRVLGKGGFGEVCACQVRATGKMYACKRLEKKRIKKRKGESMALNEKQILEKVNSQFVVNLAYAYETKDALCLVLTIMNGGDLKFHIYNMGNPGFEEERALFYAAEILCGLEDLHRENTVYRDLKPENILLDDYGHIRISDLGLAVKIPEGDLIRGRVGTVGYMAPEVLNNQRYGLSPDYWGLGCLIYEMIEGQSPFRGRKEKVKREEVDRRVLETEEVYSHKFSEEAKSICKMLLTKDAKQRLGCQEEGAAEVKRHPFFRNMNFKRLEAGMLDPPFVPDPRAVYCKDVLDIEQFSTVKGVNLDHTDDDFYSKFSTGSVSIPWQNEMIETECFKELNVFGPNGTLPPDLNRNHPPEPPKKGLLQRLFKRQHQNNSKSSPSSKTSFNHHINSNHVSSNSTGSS
UniProt P17948, 27-1338: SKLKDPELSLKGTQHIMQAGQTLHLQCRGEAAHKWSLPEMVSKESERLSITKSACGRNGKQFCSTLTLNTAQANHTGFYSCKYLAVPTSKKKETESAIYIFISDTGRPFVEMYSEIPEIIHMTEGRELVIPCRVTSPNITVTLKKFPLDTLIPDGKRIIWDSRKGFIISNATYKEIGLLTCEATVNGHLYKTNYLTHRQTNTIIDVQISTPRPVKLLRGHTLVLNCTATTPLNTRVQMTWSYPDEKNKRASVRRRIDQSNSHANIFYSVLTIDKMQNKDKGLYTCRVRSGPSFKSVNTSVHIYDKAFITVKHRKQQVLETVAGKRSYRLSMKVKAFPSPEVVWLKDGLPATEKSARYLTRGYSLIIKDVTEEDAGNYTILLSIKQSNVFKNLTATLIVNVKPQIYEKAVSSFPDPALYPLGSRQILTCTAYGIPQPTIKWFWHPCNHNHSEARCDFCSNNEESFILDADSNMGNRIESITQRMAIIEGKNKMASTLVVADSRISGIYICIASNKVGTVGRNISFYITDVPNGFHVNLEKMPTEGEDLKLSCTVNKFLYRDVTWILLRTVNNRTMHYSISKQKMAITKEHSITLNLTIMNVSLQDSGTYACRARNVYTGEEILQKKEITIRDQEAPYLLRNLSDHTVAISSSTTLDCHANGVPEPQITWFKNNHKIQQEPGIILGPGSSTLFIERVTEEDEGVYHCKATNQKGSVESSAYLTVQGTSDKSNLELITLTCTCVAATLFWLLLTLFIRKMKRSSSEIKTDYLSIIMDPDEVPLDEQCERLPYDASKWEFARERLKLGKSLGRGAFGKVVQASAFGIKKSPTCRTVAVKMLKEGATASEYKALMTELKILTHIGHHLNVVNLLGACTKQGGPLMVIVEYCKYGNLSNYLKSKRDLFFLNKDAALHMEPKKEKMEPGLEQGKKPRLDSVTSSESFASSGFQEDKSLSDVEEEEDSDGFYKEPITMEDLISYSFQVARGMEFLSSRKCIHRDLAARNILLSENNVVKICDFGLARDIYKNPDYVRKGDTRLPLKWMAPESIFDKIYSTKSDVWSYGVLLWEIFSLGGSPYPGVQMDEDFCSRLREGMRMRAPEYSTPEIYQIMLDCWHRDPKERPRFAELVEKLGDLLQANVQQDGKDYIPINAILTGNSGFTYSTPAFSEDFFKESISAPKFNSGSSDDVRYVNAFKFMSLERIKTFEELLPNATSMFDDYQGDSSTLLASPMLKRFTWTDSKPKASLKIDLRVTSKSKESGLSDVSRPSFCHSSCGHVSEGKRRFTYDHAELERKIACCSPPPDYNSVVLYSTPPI

SRPK1 = target: T2, SRPK1 (Homo sapiens, UniProt Q96SB4); settings: inhibitor 10 μM, protein 2 μM
T2 construct: purchased in-house DSF (thermal shift) panel per Fedorov et al
Protocol: as §1

MAPK14 = target: T3, MAPK14 (Homo sapiens, UniProt Q16539); settings: read-out: ΔTm
T3 construct: purchased in-house DSF (thermal shift) panel per Fedorov et al
Protocol: as §1

RPS6KA6 = target: T4, RPS6KA6 (Homo sapiens, UniProt Q9UK32); settings: read-out: ΔTm
T4 construct: purchased in-house DSF (thermal shift) panel per Fedorov et al
Protocol: as §1

CLK3 = target: T5, CLK3 (Homo sapiens, UniProt P49761); settings: read-out: ΔTm
T5 construct: purchased in-house DSF (thermal shift) panel per Fedorov et al
Protocol: as §1

MAP2K1 = target: T6, MAP2K1 (Homo sapiens, UniProt Q02750); settings: inhibitor 10 μM, protein 2 μM
T6 construct: purchased in-house DSF (thermal shift) panel per Fedorov et al
Protocol: as §1

AKT3 = target: T7, AKT3 (Homo sapiens, UniProt Q9Y243); settings: read-out: ΔTm
T7 construct: purchased in-house DSF (thermal shift) panel per Fedorov et al
Protocol: as §1

TAF1 = target: T8, TAF1 (Homo sapiens, UniProt P21675); settings: inhibitor 10 μM, protein 2 μM
T8 construct: purchased in-house DSF (thermal shift) panel per Fedorov et al
Protocol: as §1

CAMK2D = target: T9, CAMK2D (Homo sapiens, UniProt Q13557); settings: read-out: ΔTm
T9 construct: purchased in-house DSF (thermal shift) panel per Fedorov et al
Protocol: as §1

BMPR2 = target: T10, BMPR2 (Homo sapiens, UniProt Q13873); settings: inhibitor 10 μM, protein 2 μM
T10 construct: purchased in-house DSF (thermal shift) panel per Fedorov et al
Protocol: as §1

DAPK3 = target: T11, DAPK3 (Homo sapiens, UniProt O43293); settings: read-out: ΔTm
T11 construct: purchased in-house DSF (thermal shift) panel per Fedorov et al
Protocol: as §1

TOPK = target: T12, TOPK (Homo sapiens, UniProt Q96KB5); settings: inhibitor 10 μM, protein 2 μM
T12 construct: purchased in-house DSF (thermal shift) panel per Fedorov et al
Protocol: as §1

GSG2 = target: T13, GSG2 (Homo sapiens, UniProt Q8TF76); settings: inhibitor 10 μM, protein 2 μM
T13 construct: purchased in-house DSF (thermal shift) panel per Fedorov et al
Protocol: as §1

SRC = target: T14, SRC (Homo sapiens, UniProt P12931); settings: read-out: ΔTm
T14 construct: purchased in-house DSF (thermal shift) panel per Fedorov et al
Protocol: as §1

MAPK9 = target: T15, MAPK9 (Homo sapiens, UniProt P45984); settings: read-out: ΔTm
T15 construct: purchased in-house DSF (thermal shift) panel per Fedorov et al
Protocol: as §1

PHKG2 = target: T16, PHKG2 (Homo sapiens, UniProt P15735); settings: inhibitor 10 μM, protein 2 μM
T16 construct: purchased in-house DSF (thermal shift) panel per Fedorov et al
Protocol: as §1

MARK3 = target: T17, MARK3 (Homo sapiens, UniProt P27448); settings: read-out: ΔTm
T17 construct: purchased in-house DSF (thermal shift) panel per Fedorov et al
Protocol: as §1

MAPK15 = target: T18, MAPK15 (Homo sapiens, UniProt Q8TD08); settings: read-out: ΔTm
T18 construct: purchased in-house DSF (thermal shift) panel per Fedorov et al
Protocol: as §1

NEK1 = target: T19, NEK1 (Homo sapiens, UniProt Q96PY6); settings: read-out: ΔTm
T19 construct: purchased in-house DSF (thermal shift) panel per Fedorov et al
Protocol: as §1

PIM1 = target: T20, PIM1 (Homo sapiens, UniProt P11309); settings: read-out: ΔTm
T20 construct: purchased in-house DSF (thermal shift) panel per Fedorov et al
Protocol: as §1

MAP3K5 = target: T21, MAP3K5 (Homo sapiens, UniProt Q99683); settings: read-out: ΔTm
T21 construct: purchased in-house DSF (thermal shift) panel per Fedorov et al
Protocol: as §1

CSNK2A2 = target: T22, CSNK2A2 (Homo sapiens, UniProt P19784); settings: inhibitor 10 μM, protein 2 μM
T22 construct: purchased in-house DSF (thermal shift) panel per Fedorov et al
Protocol: as §1

BRAF = target: T23, BRAF (Homo sapiens, UniProt P15056); settings: read-out: ΔTm
T23 construct: purchased in-house DSF (thermal shift) panel per Fedorov et al
Protocol: as §1

MST4 = target: T24, MST4 (Homo sapiens, UniProt Q9P289); settings: read-out: ΔTm
T24 construct: purchased in-house DSF (thermal shift) panel per Fedorov et al
Protocol: as §1

NEK7 = target: T25, NEK7 (Homo sapiens, UniProt Q8TDX7); settings: inhibitor 10 μM, protein 2 μM
T25 construct: purchased in-house DSF (thermal shift) panel per Fedorov et al
Protocol: as §1

MST3 = target: T26, MST3 (Homo sapiens, UniProt Q9Y6E0); settings: read-out: ΔTm
T26 construct: purchased in-house DSF (thermal shift) panel per Fedorov et al
Protocol: as §1

EPHA2 = target: T27, EPHA2 (Homo sapiens, UniProt P29317); settings: read-out: ΔTm
T27 construct: purchased in-house DSF (thermal shift) panel per Fedorov et al
Protocol: as §1

GPRK5 = target: T28, GPRK5 (Homo sapiens, UniProt P34947); settings: inhibitor 10 μM, protein 2 μM
T28 construct: purchased in-house DSF (thermal shift) panel per Fedorov et al
Protocol: as §1

CSNK1D = target: T29, CSNK1D (Homo sapiens, UniProt P48730); settings: inhibitor 10 μM, protein 2 μM
T29 construct: purchased in-house DSF (thermal shift) panel per Fedorov et al
Protocol: as §1

FLT1 = target: T30, FLT1 (Homo sapiens, UniProt P17948); settings: read-out: ΔTm
T30 construct: purchased in-house DSF (thermal shift) panel per Fedorov et al
Protocol: as §1

BMP2K = target: T31, BMP2K (Homo sapiens, UniProt Q9NSY1); settings: read-out: ΔTm
T31 construct: purchased in-house DSF (thermal shift) panel per Fedorov et al
Protocol: as §1

MAP2K4 = target: T32, MAP2K4 (Homo sapiens, UniProt P45985); settings: read-out: ΔTm
T32 construct: purchased in-house DSF (thermal shift) panel per Fedorov et al
Protocol: as §1

RPS6KA1 = target: T33, RPS6KA1 (Homo sapiens, UniProt Q15418); settings: read-out: ΔTm
T33 construct: purchased in-house DSF (thermal shift) panel per Fedorov et al
Protocol: as §1

MAP2K6 = target: T34, MAP2K6 (Homo sapiens, UniProt P52564); settings: read-out: ΔTm
T34 construct: purchased in-house DSF (thermal shift) panel per Fedorov et al
Protocol: as §1

MAPK10 = target: T35, MAPK10 (Homo sapiens, UniProt P53779); settings: read-out: ΔTm
T35 construct: purchased in-house DSF (thermal shift) panel per Fedorov et al
Protocol: as §1

CK2A1 = target: T36, CK2A1 (Homo sapiens, UniProt P68400); settings: read-out: ΔTm
T36 construct: purchased in-house DSF (thermal shift) panel per Fedorov et al
Protocol: as §1

CN[C@@H]1C[C@H]2O[C@@](C)([C@@H]1OC)n1c3ccccc3c3c4c(c5c6ccccc6n2c5c31)C(=O)NC4 [Staurosporine, reference compound]
ΔTm at 10 µM (DMPK1): 9.8 °C
ΔTm at 10 µM (SRPK1): 7.4 °C
ΔTm at 10 µM (MAPK14): 0 °C
ΔTm at 10 µM (RPS6KA6): 1 °C
ΔTm at 10 µM (CLK3): 7.5 °C
ΔTm at 10 µM (MAP2K1): 1.6 °C
ΔTm at 10 µM (AKT3): 7.8 °C
ΔTm at 10 µM (TAF1): 0.4 °C
ΔTm at 10 µM (CAMK2D): 17.5 °C
ΔTm at 10 µM (BMPR2): 2.9 °C
ΔTm at 10 µM (DAPK3): 18.7 °C
ΔTm at 10 µM (TOPK): 8.1 °C
ΔTm at 10 µM (GSG2): 7.9 °C
ΔTm at 10 µM (SRC): 5.1 °C
ΔTm at 10 µM (MAPK9): 4.8 °C
ΔTm at 10 µM (PHKG2): 22.5 °C
ΔTm at 10 µM (MARK3): 19.2 °C
ΔTm at 10 µM (MAPK15): 14.2 °C
ΔTm at 10 µM (NEK1): -0.7 °C
ΔTm at 10 µM (PIM1): 11.5 °C
ΔTm at 10 µM (MAP3K5): 17.6 °C
ΔTm at 10 µM (CSNK2A2): 5.7 °C
ΔTm at 10 µM (BRAF): 0.4 °C
ΔTm at 10 µM (MST4): 4.6 °C
ΔTm at 10 µM (NEK7): -0.2 °C
ΔTm at 10 µM (MST3): 6.5 °C
ΔTm at 10 µM (EPHA2): 7.8 °C
ΔTm at 10 µM (GPRK5): 8.6 °C
ΔTm at 10 µM (CSNK1D): 2.5 °C
ΔTm at 10 µM (FLT1): 12.5 °C
ΔTm at 10 µM (BMP2K): 19.2 °C
ΔTm at 10 µM (MAP2K4): 12.5 °C
ΔTm at 10 µM (RPS6KA1): 4.6 °C
ΔTm at 10 µM (MAP2K6): 12.5 °C
ΔTm at 10 µM (MAPK10): 8.2 °C
ΔTm at 10 µM (CK2A1): 4.4 °C
